{
  "source": "patent US7026280B2",
  "about": "“LV V-Haemorphin-7 neuroactive peptide and methods of use” (Howard Florey Institute of Experimental Physiology, priority 1996, dated 2006)",
  "test_system": "embryonic chicken sympathetic neurons",
  "assay": "Neurite outgrowth from cultured E11 chicken sympathetic neurons",
  "settings": "10^−8 M Ang IV; test substance 1 μM",
  "data": [
    {"smiles": "CCCC[C@H](N)C(=O)N[C@@H](Cc1ccc(O)cc1)C(=O)N[C@H](C(=O)N[C@@H](Cc1c[nH]cn1)C(=O)N1CCC[C@H]1C(=O)N[C@@H](Cc1ccccc1)C(=O)O)[C@@H](C)CC", "values": [
      {"measurement": "Effect on the inhibition of neurite outgrowth by Ang IV", "value": "totally reversed"}
    ]}
  ]
}
